Assay results taken from article PMC10269814, “New Perspectives on Escherichia coli Signal Peptidase I Substrate Specificity: Investigating Why the TasA Cleavage Site Is Incompatible with LepB Cleavage” (Microbiology Spectrum, 2023).

Target: LepB Δ2-76 His-SUMO (Escherichia coli) (UniProt P00803)
Test: SPR; LepB Δ2-76 His-SUMO amine-coupled (EDC/NHS) to a CDH chip, Pioneer FE; OneStep method with 75% of the loop; peptides flowed at 50 μM, 50 μL/min, 180 s dissociation; regeneration with Tris-EDTA; triplicate

Kd: 8.01 µM
Substance: MBP wt peptide
